Test results reported in PMC3979046, “A phase 1 study evaluating the combination of an allosteric AKT inhibitor (MK-2206) and trastuzumab in patients with HER2-positive solid tumors” (Breast Cancer Research : BCR, 2013).

Experiment: Plasma pharmacokinetics of MK-2206 given with trastuzumab
Conditions: co-administration, compared with prior monotherapy study

trastuzumab: HER2-targeted agent given as standard intravenous infusion [reference compound]
effect on the pharmacokinetics of MK-2206: did not appreciably alter the pharmacokinetics of MK-2206
